Results from patent US20240279321A1 (THERINI BIO, published 2024).

Target: T1, Human fibrin γ377-395 (Human P2 peptide) (human)
T1 construct: In the crystal models, residues 410-421 of chain A are ordered; also called fibrin P2 peptide; fibrin P2 gamma peptide
T1 peptide: YSMKKTTMKIIPFNRLTIG
Experiment: BLI (ForteBio Octet): N-term biotinylated fibrin P2G peptide on SA tip, IgG in solution 100 nM (avid) [Cont.]

B1: ADI-THN227 (IgG) (antibody, V domains shown)
VH: QVQLVQSGAEVKKPGSSVKVSCKASGYTFTSYWIHWVRQAPGQGLEWIGLIDPSDSYTNYNQKFRGRVTITRDTSTSTAYMELSSLRSEDTAVYYCASSDPTGGWGQGTTVTVSS
VL: DIVMTQAAFSNPVTPGTPASISCRSSKSLLHSSGITYLSWYLQKPGQSPQLLIYQMSNLASGVPDRFSSSGSGTDFTLKISRVEAEDVGVYYCAQNLELPLTFGQGTKLEIKR
**Q.** Does B1 bind?
**A.** binds
